As usually defined, the inhibition is the drop in the measured response relative to a control, in per cent.

Each structure is given as a SMILES string.

In the assay the test system is Cholecystokinin receptor type B (Cavia porcellus). Description: Percent inhibition of specific [125I]Bolton-Hunter CCK-8 binding in guinea pig cortex at 10e-5 M. Conditions: 10e-6 M.
`Cc1ccccc1NC(=O)NCCCC[C@H](NC(=O)C(Cc1c[nH]c2ccccc12)NC(=O)OC(C)(C)C)C(=O)NCCCCC(=O)NC(Cc1ccccc1)C(N)=O` (stereo not given in full) gave an inhibition of 10%. `Cc1ccccc1NC(=O)NCCCC[C@H](NC(=O)C(Cc1c[nH]c2ccccc12)NC(=O)OC(C)(C)C)C(=O)NCCC(=O)NC(Cc1ccccc1)C(N)=O` (stereo not given in full) had an inhibition of 6%.

As to `Cc1ccccc1NC(=O)NCCCC[C@H](NC(=O)C(Cc1c[nH]c2ccccc12)NC(=O)OC(C)(C)C)C(=O)N(C)CC(=O)N(C)C(Cc1ccccc1)C(N)=O` (stereo not given in full), the inhibition is 0%. The molecule `Cc1ccccc1NC(=O)NCCCC[C@H](NC(=O)C(Cc1c[nH]c2ccccc12)NC(=O)OC(C)(C)C)C(=O)N(C)CCC(=O)N(C)C(Cc1ccccc1)C(N)=O` (stereo not given in full) showed an inhibition of 10%.

In turn, `Cc1ccccc1NC(=O)NCCCC[C@H](NC(=O)C(Cc1c[nH]c2ccccc12)NC(=O)OC(C)(C)C)C(=O)NCCCCCC(=O)N(C)C(Cc1ccccc1)C(N)=O` (stereo not given in full) gave an inhibition of 10%.

For the origin of these results see ChEMBL document CHEMBL1127751, “Novel Asp32-replacement tetrapeptide analogues as potent and selective CCK-A agonists” (J Med Chem, 1994).
